Measured values: patent publication US20230399607A1, “MATURATION AGENT” (Orizuru Therapeutics, Inc., priority 2020, published 2023)

Amino acid sequences for entries named in this document (tags omitted).
UniProt Q9BWU1, whole entry, species assumed: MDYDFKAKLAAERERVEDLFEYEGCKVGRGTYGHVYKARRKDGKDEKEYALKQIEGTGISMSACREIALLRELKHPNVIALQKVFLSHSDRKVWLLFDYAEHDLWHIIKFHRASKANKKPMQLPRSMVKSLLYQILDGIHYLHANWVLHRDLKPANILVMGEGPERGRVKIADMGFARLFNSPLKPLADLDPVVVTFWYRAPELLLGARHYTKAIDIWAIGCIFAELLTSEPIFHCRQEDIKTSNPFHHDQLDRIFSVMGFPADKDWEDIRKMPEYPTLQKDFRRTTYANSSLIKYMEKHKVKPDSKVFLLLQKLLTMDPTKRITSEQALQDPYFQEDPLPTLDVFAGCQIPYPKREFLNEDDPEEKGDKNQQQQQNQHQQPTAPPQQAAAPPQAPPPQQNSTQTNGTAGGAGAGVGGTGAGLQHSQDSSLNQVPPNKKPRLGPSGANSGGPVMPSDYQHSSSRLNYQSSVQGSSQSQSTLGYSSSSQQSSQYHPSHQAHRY

Molecular target: CDK19 (Homo sapiens, UniProt Q9BWU1)
Assay: Kinase panel test, binding-inhibiting activity against CDK19
Settings: estimated from binding inhibition at 0.1 μM and 1 μM; "6" depicts IC50 ≥ 1 μM, "8" depicts IC50 ≤ 10 nM; read-out: Estimate pIC50 value CDK19 (converted)
Method: The test compounds diethyl (E)-(4-(3-(5-(4-fluorophenyl)-1-methyl-1H-pyrazol-4-yl)acrylamido)benzyl)phosphonate (compound 1), 2-(4-(4-(isoquinolin-4-yl)phenyl)-1H-pyrazol-1-yl)-N,N-dimethylacetamide (compound 2 (BI-1347)), and 4-((2-(6-(4-methylpiperazine-1-carbonyl)naphthalen-2-yl)ethyl)amino)quinazoline-6-carbonitrile (compound 3 (Senexin B)) were evaluated for their ALK4-inhibiting activity, ALK5-inhibiting activity, CDK8-inhibiting activity and CDK19-inhibiting activity by the following method.
In the kinase panel test, 0.1 μM or 1 μM (that is, the seventh or sixth power of the −Log10 value) of each test compound was added to each of the kinases ALK4, ALK5, CDK8, and CDK19, and binding-inhibiting activity thereof was measured from 0 to 100%. Estimate pIC50 was calculated from the obtained two values and indicated by a value of 6 to 8.

- IC50: ≤ 0.01 µM
SMILES: CN1CCN(C(=O)c2ccc3cc(CCNc4ncnc5ccc(C#N)cc45)ccc3c2)CC1 [Compound 3, 4-((2-(6-(4-methylpiperazine-1-carbonyl)naphthalen-2-yl)ethyl)amino)quinazoline-6-carbonitrile]
